Measurements taken from patent US20230416786A1, “USE OF AMINOQUINOLINE COMPOUNDS FOR HIGHER GENE INTEGRATION” (CELLECTIS SA, priority 2020, published 2023).

System: HSCs
Assay: Targeted integration of HLA-E repair template at the B2M locus in HSCs (B2M TALEN + AAV-HLA-E, flow cytometry of HLA-E positive cells)
Format: cell-based, human
Settings: Example 5, FIG. 5, compound 0.02 mM, without any compound 33.3%
Source text: The targeted sequences are […]gctcgcgctactc[…]
For HSCs, AAV-HLA-E particles was thawed on ice and aliquot to transduce each of the HSC samples at 10^4 viral genome per cell (vg/cell).

## CCN(CC)CCCC(C)Nc1ccnc2cc(Cl)ccc12 (stereo not shown) [chloroquine, N4-(7-chloroquinolin-4-yl)-N1,N1-diethylpentane-1,4-diamine diphosphate]
  percentage of HLA-E positive cells: 44.4%
